Laboratory results as given in patent US9415087B2, “Compositions and methods for treating coronavirus infection” (LUDWIG-MAXIMILIANS-UNIVERSITAET MUENCHEN, priority 2014, dated 2016).

Chains of the proteins cited; added tags and fusions are not shown.
UniProt P62937, whole entry: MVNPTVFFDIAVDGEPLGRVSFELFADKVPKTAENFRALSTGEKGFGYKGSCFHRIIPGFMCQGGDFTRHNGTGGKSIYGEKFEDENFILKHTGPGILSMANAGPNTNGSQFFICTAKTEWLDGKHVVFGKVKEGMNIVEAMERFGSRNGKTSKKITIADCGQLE

What was measured:
[1] = target: human CypA (Homo sapiens, UniProt P62937); conditions: read-out: In vitro inhibition human CypA IC50; protease-coupled PPIase assay
[2] = system: NFAT; assay: NFAT reporter gene assay (luciferase) in Jurkat cells; assay type: cell-based; conditions: luciferase-coupled NFAT reporter gene assay

For `CO[C@H]1C[C@@H](C)C/C(C)=C/[C@@H](CC=CC(=O)NC(C)(C)C)C(=O)C[C@H](O)[C@@H](C)[C@@H](/C(C)=C/[C@@H]2CC[C@@H](O)[C@H](OC)C2)OC(=O)[C@@H]2CCCCN2C(=O)C(=O)[C@]2(O)O[C@H]1[C@@H](OC)C[C@H]2C`, the IC50 [1] was 10.2 nM and the “In vitro inhibition NFAT reporter gene assay IC50” value [2] was “no”.
